# Bioassay records: PubChem BioAssay, National Center for Advancing Translational Sciences (NCATS)
# An excerpt weighted towards active compounds, which were near 1.1% of everything screened.
# TrxR1 substrate – is turned over as a substrate by rat TrxR1 | purified TrxR1 substrate turnover, NADPH consumption readout | AID 588456 | Potency, µM (titrated, usually from 114 µM) | O89049 | 0.01% of 390,000 active; further: nearly all actives have a fitted effect of over 50% in size
#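 Rat TrxR1, dispensed at 90 nM, was prereduced with 400 uM NADPH (final) for 5 min at ~22 deg C, then incubated with compound 15 min before 400 uM selenite. A first-read NADPH fluorescence drop versus no-compound background flagged substrates.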
# GALK inh – inhibitors of human galactokinase | Purified GALK, Kinase-Glo residual ATP luminescence | Potency, µM (titrated, usually from 57.5 µM), most hits filed as inhibitors | P51570 | AID 1868 | 0.007% of 270,000 active
#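 Human GALK (5 nM) with 35 uM ATP and 100 uM galactose in 20 mM HEPES pH 8.0, 5 mM MgCl2, 60 mM NaCl, 1 mM DTT, 0.01% BSA. After 1 h at room temperature, leftover ATP was read by Kinase-Glo Plus luminescence.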
# TrxR1 inh – inhibitors of rat thioredoxin reductase 1; recombinant rTrxR1, NADPH fluorescence consumption, selenite substrate; Potency, µM (highest dose often 114 µM), most hits filed as inhibitors; 1% of 390,000 active; AID 588453; further: nearly all actives have a fitted effect of over 65% in size
#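 Rat TrxR1 (90 nM in the dispensed reagent) was pre-reduced with 400 uM NADPH for 5 min at room temperature, then incubated with compound for 15 min. After 400 uM selenite was added, NADPH fluorescence (Ex 340/Em 450 nm) was followed for 8 min.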
# PINK1 expr mod – modulators of PINK1 expression | PINK1 immunofluorescence, high-content cytometry, 24 h | Potency, µM (titrated, usually from 76.6 µM), usual class: activators | 0.2% of 410,000 active; active means well fitted activation curve with a large enough effect; inconclusive means small, poorly fitted or top-dose-only effect; cell line not stated here; further: nearly all actives have a fitted effect of over 65% in size
#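 Fluorescence from anti-PINK1 antibody, together with nuclear and cell stains, was scanned on a laser-scanning cytometer. Before staining, stable-line cells were incubated 24 hours with compounds at 5 concentrations; primary antibody 12 h at 10 degrees C.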
# miR-21 reporter – raises the signal of a miR-21 reporter | HeLa miR-21 FLuc reporter, luciferase, 48 h | Potency, µM (doses to about 38.3 µM) | 340,000 tested, under 10 active | AID 2288; active = well fitted rising curve with a large enough effect; inconclusive = small, poorly fitted or top-dose-only effect; inactive = no such curve, though single readings can be large or run the other way;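 also: miR-21 action dims this reporter so a rising signal means less miR-21 action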
#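 Compounds were titrated across several concentrations (up to approximately 40 uM) and incubated 48 hours with HeLa miR-21-FLuc reporter cells (miR-21 target sequence downstream of FLuc, endogenous miR-21). Readout was firefly luciferase luminescence after lytic detection reagent.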
# A number is an active result; – = inactive; ? = inconclusive; · = no result given; [ ] = another dose, or the depositor's remark. Unless noted, the call rests on the fitted dose curve; in most records, active means well fitted curve in the direction sought with a large enough effect; inconclusive means small, poorly fitted or top-dose-only effect, or another doubt; inactive means no such curve, though single readings can be large; an effect the other way counts as inactive or inconclusive.
SMILES,TrxR1 substrate,GALK inh,TrxR1 inh,PINK1 expr mod,miR-21 reporter
O=C(Nc1ccc2nc(-c3ccco3)c(-c3ccco3)nc2c1)NC1CC1,–,–,4.47µM,–,–
O=S(=O)(c1ccc2nc(-c3ccco3)c(-c3ccco3)nc2c1)N1CCOCC1,–,–,3.98µM,–,–
Cc1ccc2c(=O)cc(C(=O)Nc3nnc(CC(C)C)s3)oc2c1C,–,·,–,–,–
CCCCCNC(=O)c1cc2c(=O)n3ccccc3nc2n1C,–,·,–,–,–
CCN1c2ccccc2NC2C1C(C(C)=O)C(=O)N2c1ccc(Cl)cc1 (stereo not drawn),–,–,–,–,–
CCN1c2ccccc2NC2N=C(OC)C(c3ccccc3)C21 (stereo not drawn),–,–,20µM,–,–
O=C(CSc1ccc(Cl)cc1)c1ccco1,–,–,44.7µM,–,–
O=C(CCSc1ccc(Cl)cc1)c1ccco1,–,–,10µM,–,–
O=C(CSc1ccccc1Cl)c1ccco1,–,–,?,–,–
COCc1c(C(=O)N2CCN(C(C)C)CC2)cnn1-c1nccc(-c2cc(C)sc2C)n1,·,·,·,–,·
O=C1OC(NC(=O)c2ccccc2)C(n2cc(CO)nn2)=C1Cl (stereo not drawn),–,–,10µM,–,–
Nn1c(SCC(=O)Nc2ccccc2)nnc1C1CCCCC1,–,·,–,–,·
O=C(CSc1nnc(C2CCCCC2)n1-c1ccccc1)NCc1ccco1,–,–,12.6µM,·,–
Nn1c(SCC(=O)NCc2ccccc2)nnc1C1CC1,–,–,–,5.01µM,–
CCOC(=O)c1cc(S(=O)(=O)NCc2ccccc2)[nH]n1,–,·,–,–,–
O=C(NP(=O)(N1CCOCC1)N1CCOCC1)C1=C(N2CCOCC2)/C(=C\c2ccccc2)CC1,–,–,14.1µM,–,–
Cc1nnc(N2CCC(C(=O)NC3CCCCC3)CC2)c2nn(-c3ccc(Cl)cc3)c(C)c12,–,·,–,–,–
CCN(C(=O)c1sc2nc3n(c(=O)c2c1C)CCCCC3)c1ccc(OC)cc1,–,·,70.8µM,–,–
Cc1ccc(N2CCN(C(=O)c3ccccc3NC(=O)/C=C\C(=O)O)CC2)cc1,–,–,50.1µM,–,–
COc1ccc(CC(=O)OCCc2cc3cc(OC)c(OC)cc3c(=O)o2)cc1,–,·,17.8µM,–,·
O=C1Nc2cccnc2N(C(=O)CCl)c2ccccc21,–,–,12.6µM,–,?
COc1ccc(CCn2c(C)ccc2C)cc1OC,·,–,·,·,–
COC(=O)C1=C(C)N(CCc2ccc(OC)c(OC)c2)C(=O)/C1=C\N(C)C,–,–,10µM,–,–
COc1ccc(CCNC2=C(Cl)C(=O)N(CCc3ccc(OC)c(OC)c3)C2=O)cc1OC,–,–,–,–,–
COc1ccc(CCN2C(=O)C=CC2=O)cc1OC,–,·,0.631µM,–,·
SMILES,TrxR1 substrate,GALK inh,TrxR1 inh,PINK1 expr mod,miR-21 reporter
FC(F)(F)c1cccc(N2CCN(C(=S)NC3CCCCC3)CC2)c1,–,–,–,31.6µM,–
FC(F)(F)c1cccc(N2CCN(C(=S)NC3CCCC3)CC2)c1,–,–,–,?,–
O=C(Cn1cc(S(=O)(=O)Cc2ccccc2F)c2ccccc21)Nc1ccc(F)c(Cl)c1,–,·,–,35.5µM,?
O=C1/C(=C/c2ccco2)N=C(N2CCCCC2)N1c1ccccc1,–,–,70.8µM,–,–
CC(C)N(C1=N/C(=C\c2ccco2)C(=O)N1c1ccccc1)C(C)C,–,–,–,–,–
CC(=O)N1CCC(C(=O)Nc2nnc(C(C)C)s2)CC1,–,·,–,–,·
Cc1nc(SCc2nc3ccc(Cl)cc3[nH]2)c2oc3ccccc3c2n1,–,·,–,–,·
Cc1nc(SCc2nc3cc(Cl)c(F)cc3[nH]2)c2oc3ccccc3c2n1,–,·,–,14.1µM,·
Cc1nc(SCc2nc3ccc(C(F)(F)F)cc3[nH]2)c2oc3ccccc3c2n1,–,·,–,15.8µM,·
Cc1nc(SCc2nc3ccc(Br)cc3[nH]2)c2oc3ccccc3c2n1,–,·,–,–,·
COc1cccc(CNC(=O)c2ccc3nc(CCc4ccccc4)oc3c2)c1OC,–,·,–,–,–
CC1CCCCC1NC(=O)COC(=O)/C=C/c1ccco1 (stereo not drawn),–,·,–,–,·
O=C(COC(=O)/C=C/c1ccco1)NCc1ccco1,–,–,?,–,–
COc1ccc(CNC(=O)COC(=O)/C=C/c2ccco2)cc1,–,–,28.2µM,–,–
O=C(COC(=O)/C=C/c1ccco1)NC1CCCCC1,–,·,50.1µM,–,·
Cc1cc(C)cc(-n2ccn(CC(=O)c3ccc(F)cc3)c(=O)c2=O)c1,–,·,–,–,–
C=CC(=O)Oc1ccc(N2Cc3ccccc3C2=O)cc1,–,·,3.55µM,–,·
CCc1c(C)sc(NC(=O)CSc2nc3c(c(C(F)(F)F)n2)CCc2ccccc2-3)c1C#N,–,–,–,15.8µM,–
COCCn1c(C)cc(O)c(C(c2ccc(OC)cc2)N2CCN(c3ccccc3)CC2)c1=O (stereo not drawn),–,·,14.1µM,–,–
CCN1CCN(C(c2ccccc2Cl)c2c(O)cc(C)n(Cc3ccco3)c2=O)CC1 (stereo not drawn),–,·,8.91µM,–,–
CCN1CCN(C(c2ccc(OC)cc2)c2c(O)cc(C)n(Cc3ccco3)c2=O)CC1 (stereo not drawn),–,·,?,–,–
Cc1cc(O)c(C(c2ccccc2Cl)N2CCN(c3ccccc3)CC2)c(=O)n1Cc1ccco1 (stereo not drawn),–,·,?,–,–
Cc1cc(O)c(C(c2ccccc2)N2CCN(C)CC2)c(=O)n1Cc1ccco1 (stereo not drawn),–,·,8.91µM,–,–
CCN1CCN(C(c2ccccc2)c2c(O)cc(C)n(Cc3ccco3)c2=O)CC1 (stereo not drawn),–,·,7.94µM,–,–
COc1ccccc1CNc1ncnc2c1nnn2C,–,·,–,–,–
SMILES,TrxR1 substrate,GALK inh,TrxR1 inh,PINK1 expr mod,miR-21 reporter
Cc1ccc2oc(C(=O)Nc3cccc(Cl)c3)cc(=O)c2c1,–,·,–,–,–
CC(C)OC(=O)c1nn2c(C(F)(F)F)cc(-c3ccc(Br)o3)nc2c1Br,–,–,25.1µM,?,–
CC(C)OC(=O)c1nn2c(C(F)(F)F)cc(-c3ccco3)nc2c1Cl,–,–,–[11.4 µM],?,–
COc1ccccc1CNc1ccc(-c2nc(-c3cccnc3)no2)cc1[N+](=O)[O-],–,·,–,?,–
COC(=O)[C@@H]1CCCN1Cc1ccc2c(c1)CN(Cc1cccn1-c1ccc(Cl)cn1)CCO2,·,·,·,–,·
COC(=O)C1C2C=CC3(CN(Cc4ccco4)C(=O)C13)O2 (stereo not drawn),–,–,?,–,–
CC12C=CC3(CN(Cc4ccccc4)C(=O)C3C1C(=O)NCc1ccco1)O2 (stereo not drawn),–,–,56.2µM,–,–
C[C@@H]1CN([C@H](C)CO)C(=O)c2cc(NC(=O)c3ccncc3)ccc2O[C@@H]1CN(C)C(=O)Nc1ccccc1,–,·,70.8µM,–,·
